{"source": "PubChem BioAssay AID2810", "about": "(NMMLSC, 2010)", "note": "Only a part is listed here, and it is no random draw. The source made the active and inactive calls.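 How the source made its calls: active means at either tested dose, response and 90th-percentile vesicle-stain brightness of CD8 cells under set limits and under 9% cells vesicle-bound; inactive means the rest.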", "data": [{"experiment": "modulators of CD8 T cell-vesicle binding, confirmation, cherry-picked primary hits, two concentrations (AID 2810);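 further: ratio of mean FL2 vesicle stain of CD8+ cells to that row's control; lower values mean blocking of vesicle binding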", "conditions": "2C CD8+ T cell-vesicle binding, flow cytometry; at 15.4 µM; hits give low values", "values": [{"compound": "C[N+]1=C2C=CC=CC=C2SC12C([N+](=O)[O-])=CC([N+](=O)[O-])=C[C-]2[N+](=O)[O-]", "note": "(stereo unspecified)", "percent response (vesicle binding)": "inactive: 253%"}]}]}
